Results on 1 compound are retold here after patent US9744189B1, “Compositions of lithium salts and methods of use” (University of South Florida, priority 2013, dated 2017).

For the data set the following is noted: rats, acute oral administration.

As to `O=C([O-])c1ccccc1O.[Li+]` [Lithium Salicylate, lithium salicylate], the “blood/plasma distribution versus brain distribution” value is “essentially the same as the brain distribution”.
